Experimental findings from patent US9718813B2, “Imidazolin-5-one derivative useful as FASN inhibitors for the treatment of cancer” (Janssen Pharmaceutica, NV, priority 2013, dated 2017) are described below.

The chains behind the UniProt entries cited, without tags or fusion partners.
UniProt P49327, whole entry: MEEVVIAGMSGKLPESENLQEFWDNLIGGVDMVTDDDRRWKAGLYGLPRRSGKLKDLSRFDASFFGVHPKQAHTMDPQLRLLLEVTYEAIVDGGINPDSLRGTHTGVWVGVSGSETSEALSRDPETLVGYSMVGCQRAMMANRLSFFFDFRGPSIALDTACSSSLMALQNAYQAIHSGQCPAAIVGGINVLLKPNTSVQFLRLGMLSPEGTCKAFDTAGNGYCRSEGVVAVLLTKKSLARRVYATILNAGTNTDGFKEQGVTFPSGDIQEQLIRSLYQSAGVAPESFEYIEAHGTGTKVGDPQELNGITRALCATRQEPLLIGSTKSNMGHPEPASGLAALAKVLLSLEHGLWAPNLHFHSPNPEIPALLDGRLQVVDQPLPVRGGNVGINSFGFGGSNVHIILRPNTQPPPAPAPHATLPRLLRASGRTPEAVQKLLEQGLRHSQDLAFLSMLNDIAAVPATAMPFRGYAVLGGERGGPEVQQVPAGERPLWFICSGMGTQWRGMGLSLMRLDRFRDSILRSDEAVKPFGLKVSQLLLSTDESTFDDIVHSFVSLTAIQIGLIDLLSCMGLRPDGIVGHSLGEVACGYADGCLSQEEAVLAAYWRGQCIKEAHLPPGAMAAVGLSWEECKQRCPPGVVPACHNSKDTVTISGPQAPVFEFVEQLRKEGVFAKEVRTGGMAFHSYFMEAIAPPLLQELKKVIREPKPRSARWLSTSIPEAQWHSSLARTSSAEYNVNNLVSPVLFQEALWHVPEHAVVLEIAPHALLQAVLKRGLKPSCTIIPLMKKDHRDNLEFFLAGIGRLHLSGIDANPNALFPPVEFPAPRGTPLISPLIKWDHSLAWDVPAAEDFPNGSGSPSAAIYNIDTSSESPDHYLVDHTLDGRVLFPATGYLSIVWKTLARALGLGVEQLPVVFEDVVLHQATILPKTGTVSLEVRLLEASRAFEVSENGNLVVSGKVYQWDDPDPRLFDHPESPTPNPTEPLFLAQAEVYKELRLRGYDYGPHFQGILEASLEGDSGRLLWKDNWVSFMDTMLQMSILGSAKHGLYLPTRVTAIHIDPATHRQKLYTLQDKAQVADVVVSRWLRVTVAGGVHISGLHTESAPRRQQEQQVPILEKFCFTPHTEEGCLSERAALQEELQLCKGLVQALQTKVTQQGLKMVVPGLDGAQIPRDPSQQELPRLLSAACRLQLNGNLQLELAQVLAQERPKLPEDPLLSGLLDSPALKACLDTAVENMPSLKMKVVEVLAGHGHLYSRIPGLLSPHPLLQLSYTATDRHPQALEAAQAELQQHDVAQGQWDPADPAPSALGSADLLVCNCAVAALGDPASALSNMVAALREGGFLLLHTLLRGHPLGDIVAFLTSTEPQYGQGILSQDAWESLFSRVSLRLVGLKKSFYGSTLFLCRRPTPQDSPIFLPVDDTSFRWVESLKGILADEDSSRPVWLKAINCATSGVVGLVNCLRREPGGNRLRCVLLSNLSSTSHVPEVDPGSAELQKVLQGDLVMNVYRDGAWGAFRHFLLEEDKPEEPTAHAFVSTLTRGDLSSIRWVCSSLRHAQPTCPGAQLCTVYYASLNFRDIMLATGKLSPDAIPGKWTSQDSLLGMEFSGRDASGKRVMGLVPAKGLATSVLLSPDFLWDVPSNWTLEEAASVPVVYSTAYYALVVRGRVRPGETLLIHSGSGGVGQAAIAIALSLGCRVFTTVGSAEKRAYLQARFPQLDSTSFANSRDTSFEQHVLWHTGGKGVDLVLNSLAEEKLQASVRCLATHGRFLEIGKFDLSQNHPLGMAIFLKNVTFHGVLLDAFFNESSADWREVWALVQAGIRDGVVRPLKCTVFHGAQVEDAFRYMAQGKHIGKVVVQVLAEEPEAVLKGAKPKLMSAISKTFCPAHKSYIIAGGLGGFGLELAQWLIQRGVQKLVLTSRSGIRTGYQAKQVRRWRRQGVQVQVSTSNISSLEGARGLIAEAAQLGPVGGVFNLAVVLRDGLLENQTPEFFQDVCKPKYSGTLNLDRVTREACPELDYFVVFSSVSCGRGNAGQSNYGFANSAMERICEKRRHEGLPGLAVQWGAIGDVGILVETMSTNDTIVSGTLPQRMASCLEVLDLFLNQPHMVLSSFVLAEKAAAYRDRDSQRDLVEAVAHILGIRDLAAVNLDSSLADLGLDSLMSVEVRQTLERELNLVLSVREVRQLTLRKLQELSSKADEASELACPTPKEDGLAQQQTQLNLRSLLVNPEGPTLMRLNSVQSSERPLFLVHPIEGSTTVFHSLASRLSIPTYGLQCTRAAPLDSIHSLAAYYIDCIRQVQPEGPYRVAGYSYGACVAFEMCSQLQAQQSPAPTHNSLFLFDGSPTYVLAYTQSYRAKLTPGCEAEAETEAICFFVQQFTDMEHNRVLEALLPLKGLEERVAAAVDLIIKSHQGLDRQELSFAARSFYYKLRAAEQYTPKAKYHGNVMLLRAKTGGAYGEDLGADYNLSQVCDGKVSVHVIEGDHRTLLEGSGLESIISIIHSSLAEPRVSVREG

Assay [1] concerns the target FASN Keto-reductase Domain (hFASN enzyme, full length) (Homo sapiens (Human), UniProt P49327). Kind of assay: Fatty Acid Synthase Keto-reductase Domain (FASN KR) Inhibition. It counts as biochemical. The note with it: NADPH oxidation at 340 nm, ethyl acetoacetate substrate; read-out: FASN Keto-reductase Domain pIC50 (converted). The procedure:
After 20 minutes incubation at room temperature the plate was measured again (T2).
The decrease in absorbance was calculated as (Absorbance before incubation T1)−(Absorbance following incubation T2).
(§1) Raw data generated by the instrument were normalized to % Controlmin values, which were calculated as: % Controlmin=100*(x−mLC)/(mHC−mLC)
(§2) where mLC and mHC were the means of the low control wells and high control wells on the plate, after manual exclusion of outliers. A plot of Controlmin versus test compound concentration was fitted to a 4-parameter logistic curve using a non-linear least squares regression method.

Assay [2] deals with hFASN enzyme (full length) (Homo sapiens (Human), UniProt P49327). Kind of assay: Fatty Acid Synthase (FASN) Inhibition Scintillation Proximity Assay. In kind it is biochemical. The procedure:
In this assay, inhibition of FASN activity is measured using ^3H-acetyl-CoA and malonyl-CoA as substrates. ^3H-Acetyl CoA is converted to ^3H-palmitate through a series of reactions by the FASN protein, which contains 7 functional domains and carries out 7 enzymatic reactions to ultimately produce ^3H-palmitate. The assay principle is based upon the fact that ^3H-acetyl-CoA is hydrophilic and the end product, ^3H-palmitate is hydrophobic.
10 μL assay buffer (100 mM KH2PO4 pH 7.5, 1 mM DTT) (20 μL in blanks) was added to a 384-well white Opti Plate plate (Perkin Elmer). 0.9 μL test compound (at concentrations of 30 μM, 10 μM, 3 μM, 1 μM, 0.30 μM, 0.10 μM, 0.03 μM and 0.01 μM)/DMSO and 10 μL hFASN enzyme (full length, 300 ng, purified in house) or 10 μL assay buffer was added to the wells. […] The reaction was stopped by adding 20 μL Streptavidin coupled imaging beads (25 mg/ml). After incubation for 30 minutes at room temperature in the dark, the 384 well plate was centrifuged at 1500 rpm for 3 minutes and was measured after at least 24 hrs by the LEADseeker™, measuring emission using a 610±20 nm pass filter.
as §1, §2
Background: Scintillation proximity formats need no separation of bound from free tracer.

For `Cn1ncc2cc(-c3ccc(C4=NC(C)(c5ccccc5)C(=O)N4C[C@@H]4CCN(C(=O)C5CC5)C4)cc3)ccc21` (mixture of isomers) [Compound 6, (4RS)-1-(((R)-1-(cyclopropanecarbonyl)pyrrolidin-3-yl)methyl)-4-methyl-2-(4-(1-methyl-1H-indazol-5-yl)phenyl)-4-phenyl-1H-imidazol-5(4H)-one], the IC50 in assay [1] is 417 nM; in assay [2], 162 nM.

For the molecule `COCC1(C)N=C(c2ccc(-c3ccc4c(cnn4C)c3)cc2)N(C[C@@H]2CCN(C(=O)C3CC3)C2)C1=O` (mixture of isomers) [Compound 10, (4RS)-1-(((R)-1-(Cyclopropanecarbonyl)pyrrolidin-3-yl)methyl)-4-(methoxymethyl)-4-methyl-2-(4-(1-methyl-1H-indazol-5-yl)phenyl)-1H-imidazol-5(4H)-one], the IC50 in assay [1] was 1120 nM; in assay [2], 490 nM.

Take `Cn1ncc2cc(-c3ccc(C4=NC(C)(C)C(=O)N4C[C@@H]4CCN(C(=O)C5CC5)C4)c(F)c3)ccc21` [Compound 53, (R)-1-((1-(cyclopropanecarbonyl)pyrrolidin-3-yl)methyl)-2-(2-fluoro-4-(1-methyl-1H-indazol-5-yl)phenyl)-4,4-dimethyl-1H-imidazol-5(4H)-one]: the “Human FASN pIC50” value in assay [2] (hFASN, 3H-acetyl-CoA and malonyl-CoA substrates, SPA, mean if tested more than once) worked out at 7.03.
